Earlier results, collected in patent US10948221B1 (priority 2020, dated 2021).

System: rat
Conditions: in vivo

[K+].[O-][Br+2]([O-])[O-] [KBrO3]
LD50 (oral-rat; mg/kg): 321 mg/kg
